Some of the results follow. Entries with a potency or affinity are not part of this list. Active and inactive are the calls of the source.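 The calls were made as follows: active = compounds lowering signal whose fitted AC50 is at most ten times the top tested dose; inconclusive = flat fit with moderate inhibition, or poor curve fit; inactive = the rest.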
Assay: decrease of heat-induced HSF-1 GFP reporter, dose response, NIH3T3 R4 cells, GFP/RFP, cherry-pick, set 3 (AID 493083);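 also: 0% = neutral control wells and -100% = didemnin B positive control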
Conditions: NIH3T3 R4 HSF-1 GFP reporter, heat shock, 48 h; at 19.5 µM (top of the series)
For `CP(=O)(Nc1ccccc1F)Oc1ccccc1` (stereo unspecified), the activity change, negative = inhibition was inactive: -8.99%.
